Values of other authors as cited in patent US7211241B2, “Cascade polymer complexes, process for their production and pharmaceutical agents containing said complexes” (Schering Aktiengesellschaft, priority 1995, dated 2007).

Details: rats, cited from earlier work

Question: For “albumin-GdDTPA: macromolecular contrast medium of the prior art (Radiology 1987; 162: 205)”, which “concentration in the liver tissue” value (24 hours after intravenous injection) is on record?
Answer: ~30 % of the dose

Question: And the dose eliminated (in 24 hours, intravenous injection)?
Answer: 20 % of the dose
